System: adult rheumatoid arthritis patients naive to MTX
Assay: Prospective longitudinal MTX dose escalation study: occurrence of side-effects (Example 2)
[1] = ATIC 347G/G vs. ATIC 347C/C or C/G
[2] = GGH -401C/C vs. GGH -401T/T or C/T

Question: Which results are given for `CN(Cc1cnc2nc(N)nc(N)c2n1)c1ccc(C(=O)N[C@@H](CCC(=O)O)C(=O)O)cc1` [MTX, methotrexate]?
Answer: Estimate, percentage of 4 week periods with all side-effects [1]: 0.26 ± 0.13; Estimate, percentage of 4 week periods with central nervous system side-effects [1]: 0.27 ± 0.11; Estimate, percentage of 4 week periods with gastrointestinal side-effects [1]: 0.27 ± 0.11; Estimate, percentage of 4 week periods with central nervous system side-effects [2]: 0.24 ± 0.10; Estimate, percentage of 4 week periods with gastrointestinal side-effects [2]: 0.31 ± 0.09; Estimate, percentage of 4 week periods with all side-effects (GGH -401C/C vs. GGH -401T/T or C/T, multivariate analysis): 0.38 ± 0.10

From patent US20100203507A1 (PROMETHEUS LABORATORIES, INC, priority 2005, published 2010)
